Anesthetic bind = candidate novel general anesthetic via apoferritin binding; P02791; apoferritin/1-aminoanthracene competitive binding, fluorescence; Potency, µM (titrated, usually from 77.5 µM), for the others: top-dose activity change, negative = displacement, actives largely listed as inhibitors; 350,000 compounds, 0.074% hits; also: potency is read from the fitted curve at half-maximal effect; % is scaled to controls: 0 for no effect and ±100 for the full control effect; nearly all actives have a fitted effect of over 20% in size
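Read-out: endpoint 1-AMA fluorescence, excitation 380 nm and emission 535 nm, after compounds sit 10 min at room temperature with 10 uM horse-spleen apoferritin in 50% saturated 1-AMA/PBS. Values come from four-parameter Hill fits.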
rTrxR1 inhibitor = rat TrxR1 inhibition; Potency, µM (titrated, usually from 114 µM), inactives show at the top dose activity change, negative = inhibition, hits mostly inhibitors; 390,000 compounds, 1% hits; recombinant rTrxR1, NADPH fluorescence consumption, selenite substrate; also: potency is read from the fitted curve at half-maximal effect; % is scaled to controls: 0 for no effect and ±100 for the full control effect; nearly all actives have a fitted effect of over 65% in size
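Rat TrxR1 (90 nM in the dispensed reagent) was pre-reduced with 400 uM NADPH for 5 min at room temperature, then incubated with compound for 15 min. After 400 uM selenite was added, NADPH fluorescence (Ex 340/Em 450 nm) was followed for 8 min.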
TrxR1 substrate = substrates of rat thioredoxin reductase 1; O89049; purified TrxR1 substrate turnover, NADPH consumption readout; Potency, µM (highest dose often 114 µM), for inactives: at the top dose activity change, negative = substrate turnover; 390,000 compounds, 0.01% hits; also: potency is read from the fitted curve at half-maximal effect; % is scaled to controls: 0 for no effect and ±100 for the full control effect; nearly all actives have a fitted effect of over 50% in size
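Rat TrxR1, dispensed at 90 nM, was prereduced with 400 uM NADPH (final) for 5 min at ~22 deg C, then incubated with compound 15 min before 400 uM selenite. A first-read NADPH fluorescence drop versus no-compound background flagged substrates.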
ClpP mod = qHTS Assay for Activators of ClpP; ATP-dependent Clp protease proteolytic subunit (Bacillus subtilis (strain 168)), P80244; purified B. subtilis ClpP, FRET peptide cleavage, 20 min; Potency, µM (doses to about 57.5 µM), inactives show at the highest dose activity change, negative = active; 340,000 compounds, 1.9% hits; AID 651965, 2013; active = well fitted falling curve with a large enough effect; inconclusive = small, poorly fitted or top-dose-only effect; inactive = no such curve, though single readings can be large or run the other way; also: potency is read from the fitted curve at half-maximal effect; the source files actives as falling curves though it sought activators and does not explain the sign; nearly all actives have a fitted effect of over 65% in size
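FRET quenching reversal measured ClpP activation: 10 microg/mL B. subtilis ClpP at pH 8 with the FRET-FV decapeptide, read at 430 nm after 320 nm excitation. The 20-min minus 0-min signal was scaled between DMSO/no-enzyme wells and ADEP (5.8 microM final).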
miR-21 reporter = raises the signal of a miR-21 reporter; AID 2288; 340,000 tested, under 10 active; Potency, µM (doses to about 38.3 µM), inactives show at the top dose reporter change, positive = more light; HeLa miR-21 FLuc reporter, luciferase, 48 h; active = well fitted rising curve with a large enough effect; inconclusive = small, poorly fitted or top-dose-only effect; inactive = no such curve, though single readings can be large or run the other way;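 note: % of control where 0% means no effect; miR-21 action dims this reporter so a rising signal means less miR-21 action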
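Luminescence from a firefly luciferase reporter carrying a miR-21 binding site downstream, stably expressed under a CMV promoter in HeLa cells that make miR-21 endogenously, reports miRNA modulation after 48 h compound exposure up to approximately 40uM final.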
Starred values were filed as active, the others as inactive; ? = inconclusive; . = not tested or not shown; [ ] = another dose, or the depositor's remark. Shown are actives, neighbours in structure and some others; about 2.5% of the full set was active somewhere. Unless noted, calls follow the shape of the dose curve; as a rule, active = well fitted curve in the direction sought with a large enough effect; inconclusive = small, poorly fitted or top-dose-only effect, or another doubt; inactive = no such curve, though single readings can be large; an effect the other way counts as inactive or inconclusive.

The chains behind the UniProt entries cited, without tags or fusion partners.
ATP-dependent Clp protease proteolytic subunit (Bacillus subtilis (strain 168)), P80244, UniProt P80244, whole entry, looked up: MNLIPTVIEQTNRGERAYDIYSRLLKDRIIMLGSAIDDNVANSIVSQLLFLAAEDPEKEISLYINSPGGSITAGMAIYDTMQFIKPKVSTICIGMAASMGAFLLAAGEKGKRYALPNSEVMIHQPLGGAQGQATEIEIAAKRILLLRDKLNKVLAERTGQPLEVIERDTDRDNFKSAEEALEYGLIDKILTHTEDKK

Keys: A = Anesthetic bind; B = rTrxR1 inhibitor; C = TrxR1 substrate; D = ClpP mod; E = miR-21 reporter
O=c1[nH][nH]c2c(N=Cc3ccccc3O)ccc(F)c12
  A = 5.9% | B = 3.16µM* | C = 5.9% | D = . | E = 5.9%

CCc1ccc(O)c(N=Cc2ccccc2O)c1
  A = -11.1% | B = -2.1%[57.1 µM] | C = 7.8%[57.1 µM] | D = -1.1% | E = -12.3%

CC(C)(C)c1ccc(OCC(=O)N(Cc2ccco2)Cc2ccccc2F)cc1
  A = 119.5% | B = 18.6% | C = -3.1% | D = 0.1% | E = ?

COc1ccc(CNC(=O)c2ccc3c(c2)N(Cc2c(F)cccc2Cl)C(=O)CS3)cc1
  A = -2.8% | B = 11.0%[2.29 µM] | C = 2.7% | D = -1.0% | E = 29.4%

Cc1ccc2nc3c(cc2c1)CN(Cc1ccco1)C(=NCC1CCCO1)S3 (configuration not stated)
  A = -14.4% | B = -35.3% | C = -5.7% | D = -3.6% | E = -0.7%

Cc1cccc2cc3c(nc12)SC(=NCC1CCCO1)N(Cc1ccco1)C3 (configuration not stated)
  A = ? | B = 3.55µM* | C = 99.7% | D = ? | E = ?

O=C(CCN1CCc2ccccc2C(c2ccccc2)C1)c1ccc2c(c1)OCCO2 (configuration not stated)
  A = -21.7% | B = 1.12µM* | C = -12.3% | D = 2.5% | E = 8.8%

O=C(CCN1Cc2ccccc2C1)c1ccc2c(c1)OCCO2
  A = -20.1% | B = 0.316µM* | C = -4.0% | D = -2.6% | E = 5.9%

Cc1cc[n+](CCC2CCCCC2)cc1
  A = . | B = 20.7% | C = 6.5% | D = -0.6% | E = .

COc1ccc(C(=O)Nc2ccc3nc(SCC(=O)N(C)c4ccccc4)sc3c2)cc1
  A = 1.9% | B = 42.3% | C = 17.8% | D = -19.2% | E = -7.5%

COc1cc2c(NC3CCN(C(C)C)CC3)nc(N3CCCN(C)CC3)nc2cc1OCCCN(C)C
  A = . | B = ? | C = 72.3% | D = 4.8% | E = .

O=C(Nc1cccc(C(=O)O)c1)/C(=C\c1ccco1)NC(=O)c1ccccc1Cl
  A = -3.0% | B = -40.4% | C = 1.6%[57.1 µM] | D = 1.2% | E = -3.6%

O=C(Nc1ccccc1C(=O)O)/C(=C/c1ccc(Cl)cc1Cl)NC(=O)c1ccco1
  A = -2.3% | B = -3.6% | C = -12.2% | D = 35.5µM* | E = 0.5%

CC(=O)Oc1ccc(N2C(=O)C3C4C=CC(C5CC45)C3C2=O)cc1[N+](=O)[O-] (configuration not stated)
  A = -10.4% | B = 44.7µM* | C = -10.5% | D = -2.0% | E = -11.1%

CCOc1ccccc1N(CC(=O)N1CCc2ccccc2C1)S(=O)(=O)c1ccccc1
  A = 55.4% | B = 8.3% | C = -0.7% | D = -1.9% | E = -0.5%

Random excerpt: 3 compounds from above, in no set order.
Keys: A = Anesthetic bind; B = rTrxR1 inhibitor; C = TrxR1 substrate; D = ClpP mod; E = miR-21 reporter
CCOc1ccccc1N(CC(=O)N1CCc2ccccc2C1)S(=O)(=O)c1ccccc1
  A = 55.4% | B = 8.3% | C = -0.7% | D = -1.9% | E = -0.5%

O=C(CCN1CCc2ccccc2C(c2ccccc2)C1)c1ccc2c(c1)OCCO2 (configuration not stated)
  A = -21.7% | B = 1.12µM* | C = -12.3% | D = 2.5% | E = 8.8%

O=c1[nH][nH]c2c(N=Cc3ccccc3O)ccc(F)c12
  A = 5.9% | B = 3.16µM* | C = 5.9% | D = . | E = 5.9%

The list continues.
Keys: A = Anesthetic bind; B = rTrxR1 inhibitor; C = TrxR1 substrate; D = ClpP mod; E = miR-21 reporter
NC(=O)/C=C\C(=O)Nc1cccc(C(F)(F)F)c1
  A = -14.4% | B = 25.1µM* | C = 10.5% | D = -2.2% | E = 1.1%

CC[C@H](C)[C@H](NC(=O)[C@H](C)NC(=O)[C@H](CC(=O)O)NC(=O)[C@H](CO)NC(=O)[C@@H](N)Cc1cnc[nH]1)C(=O)N[C@@H](Cc1ccccc1)C(=O)N[C@H](C(=O)N[C@@H](CCC(N)=O)C(=O)N[C@@H](CCC(N)=O)C(=O)N[C@@H](Cc1ccc(O)cc1)C(=O)N[C@@H](CO)C(=O)N[C@@H](CCCCN)C(=O)N[C@@H](CC(C)C)C(=O)N[C@@H](CC(C)C)C(=O)N[C@@H](C)C(=O)N[C@@H](CCCCN)C(=O)N[C@@H](CC(C)C)C(=O)N[C@@H](C)C(=O)N[C@@H](CC(C)C)C(=O)N[C@@H](CCC(N)=O)C(=O)N[C@@H](CCCCN)C(=O)N[C@@H](Cc1ccc(O)cc1)C(=O)N[C@@H](CC(C)C)C(=O)N[C@@H](C)C(=O)N[C@@H](CO)C(=O)N[C@H](C(=O)N[C@@H](CC(C)C)C(=O)NCC(=O)N[C@@H](CO)C(=O)N[C@@H](CCCNC(=N)N)C(=O)N[C@H](C(=O)N[C@@H](CO)C(=O)N1CCC[C@H]1C(=O)N1CCC[C@H]1C(=O)N1CCC[C@H]1C(N)=O)[C@@H](C)O)[C@@H](C)CC)[C@@H](C)O
  A = 131.5% | B = . | C = . | D = . | E = .

COc1ccc(-n2c(SCC(N)=O)nnc2-c2ccco2)cc1
  A = 7.0% | B = 13.9% | C = 7.2% | D = -1.4% | E = -3.0%

CCn1c(SCC(=O)c2ccc3c(c2)OCCO3)nnc1-c1ccco1
  A = -20.0% | B = 50.1µM* | C = 0.9% | D = -14.5% | E = -6.1%

CCn1c(SCC(=O)N(C)CC(=O)Nc2cccc(OC)c2)nnc1-c1ccco1
  A = . | B = -17.9% | C = 1.9% | D = 28.2µM* | E = .

COc1cccc(-n2c(SCC(N)=O)nnc2-c2ccco2)c1
  A = -2.4% | B = 5.1%[57.1 µM] | C = 9.0%[57.1 µM] | D = 31.6µM* | E = -1.0%

O=C(CSC1=Nc2ccccc2N=C(c2ccc(F)cc2)C1)Nc1cccc(C(F)(F)F)c1
  A = -1.7% | B = 21.9%[57.1 µM] | C = -3.6%[57.1 µM] | D = -3.1% | E = 14.4%

Cc1ccccc1Nc1nnc(-c2ccc(C)c(S(=O)(=O)N3CCCCC3)c2)c2ccccc12
  A = 26.2% | B = 24.2% | C = 8.9% | D = -22.3% | E = 9.8%

CCOc1ccccc1CNC(=O)c1cc2oc3ccccc3c2n1C
  A = 53.0% | B = 64.8% | C = 81.3% | D = 20µM* | E = 18.8%

CC(=O)N1N=C(c2ccc(C(C)(C)C)cc2)OC1(C)C
  A = ? | B = -13.6% | C = 11.8% | D = 31.6µM* | E = -0.2%

CC(=O)N1N=C(c2ccc3ccccc3c2)OC1(C)C
  A = 8.2% | B = -31.2% | C = 131.0% | D = 13.8% | E = -1.1%

CN1c2ccccc2C(C)(C)C12C=Cc1cc(O)ccc1O2 (configuration not stated)
  A = ? | B = ? | C = 8.9%[57.1 µM] | D = -1.0% | E = 13.2%

CN1c2ccccc2C(C)(C)C12C=Nc1c(cc(N3CCOCC3)c3ccccc13)O2 (configuration not stated)
  A = -13.2% | B = 7.2% | C = -16.4% | D = 28.2µM* | E = ?

O=[N+]([O-])c1cc(C=NN2CCCCCC2)ccc1Cl
  A = . | B = 13.2%[57.1 µM] | C = 8.9%[57.1 µM] | D = 28.2µM* | E = .

Cc1ccccc1-c1nc2scc(CCNC(=O)c3ccco3)n2n1
  A = -1.8% | B = -4.3%[57.1 µM] | C = -7.4%[57.1 µM] | D = -2.6% | E = 3.4%

CC(=O)N1CCc2cc(CNS(=O)(=O)c3ccc(F)cc3)ccc21
  A = 4.0% | B = 11.2%[57.1 µM] | C = 3.2%[57.1 µM] | D = 1.0% | E = -36.1%

Cc1ccc(C(=O)CC2(O)C(=O)N(Cc3ccc4c(c3)OCO4)c3ccccc32)cc1 (configuration not stated)
  A = 14.1µM* | B = 20.3%[57.1 µM] | C = 6.3%[57.1 µM] | D = 15.8µM* | E = -13.6%

COCCCn1c(=O)c2sccc2n2c(CCCC(=O)Nc3cccc(C(F)(F)F)c3)nnc12
  A = -16.3% | B = 5.0% | C = 7.0% | D = -11.2% | E = 2.9%

CCN(CC)C(=O)c1cc([N+](=O)[O-])cc2c1-c1ccc([N+](=O)[O-])cc1C2=C(C#N)C#N
  A = -5.3% | B = 25.1µM* | C = -4.4% | D = . | E = -4.5%

CCN(CC)C(=O)c1ccc(Oc2ccc([N+](=O)[O-])cc2Cl)cc1
  A = ? | B = 29.9%[57.1 µM] | C = 2.8%[57.1 µM] | D = . | E = 3.3%

Cc1ccc(CN(Cc2ccco2)C(=O)c2ccc(OCC(C)C)cc2)cc1
  A = 107.0% | B = 12.6% | C = -3.2% | D = 0.7% | E = -0.5%

CCC(CC)n1c(C)cc(=O)n1C(CC)CC
  A = . | B = 12.0%[11.4 µM] | C = 10.1%[57.1 µM] | D = -5.3% | E = .

Cc1cc(=O)n(C(C)Cc2ccccc2)n1C(C)Cc1ccccc1 (configuration not stated)
  A = . | B = 1.0%[11.4 µM] | C = -4.9%[11.4 µM] | D = 31.6µM* | E = .

From PubChem BioAssay
